Measured affinities in a library of Ab-14 heavy chain variants

Values reported by Li et al. 2023, doi:10.1038/s41467-023-39022-2 (FLAb copy).

The target is the same throughout: PDVDLGDISGINAS, from the HR2 region of SARS-CoV-2 spike.

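Phage display of a naive human antibody library on the peptide gave the parent. Designed CDR sequences, proposed from the first random library and measured here. Group labels follow the data file (Ctrl: baseline library sampled from a position-specific scoring matrix, with some repeated check sequences; GPLM: also part of the Gaussian process libraries; Gen: genetic algorithm; a sequence that several methods proposed may carry one label only). The assay is AlphaSeq: two haploid yeast populations carry antibody and antigen on their surface. After mating in shaken culture at 30 °C for 16 h, diploids were selected and their barcode pairs sequenced. Scores were corrected for input abundance and mapped to Kd with protein pairs of known affinity run in the same pool. The assay was run in six technical replicates.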

The variants keep the light chain, the linker and the frameworks of Ab-14 (scFv order VH, three GGGGS repeats, VL).
VH: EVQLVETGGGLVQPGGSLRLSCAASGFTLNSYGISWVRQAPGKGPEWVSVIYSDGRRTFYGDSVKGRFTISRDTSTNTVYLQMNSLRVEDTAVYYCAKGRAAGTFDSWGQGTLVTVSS
VL: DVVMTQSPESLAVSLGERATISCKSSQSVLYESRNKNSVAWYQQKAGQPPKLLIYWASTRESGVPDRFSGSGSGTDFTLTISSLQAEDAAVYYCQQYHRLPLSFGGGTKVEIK

Changes read parent residue, position, new residue, counted from the first residue of the VH shown. The read-out is the apparent dissociation constant on a log10 scale (nM): the lower, the stronger. An entry "n.d." has no value in the source: the pair was not observed among the diploids in that replicate. This suggests poor binding but is not conclusive. The range of this assay differs from that of the first round, and the authors advise against merging the two. The authors' rule: three or more of the six replicates give a measured affinity, fewer mean a poor binder. Background: pairings of all heavy chain designs with three empty control strains gave a value in 1% of cases (median 2.08, 5th percentile 0.84). Values in that range, when seen in few replicates, are hard to tell from nonspecific mating. Also given: how often the same scFv was detected with the empty control strains, with their mean in brackets. The parent sequence was in this pool as ten entries: three were never detected, three once, and four in most replicates, with averages from 0.34 to 2.37. Where one sequence has several entries in the source, the replicates are listed entry by entry, parted by semicolons.

changes,group,log10 Kd (nM) by replicate,control signals
G103C+D106S,Ctrl,n.d. n.d. n.d. n.d. n.d. n.d.,0/18
L29I+G61N+D62G+R100K+F105I,Ctrl,n.d. n.d. n.d. n.d. n.d. n.d.,0/18
G99I+R100E,Ctrl,n.d. n.d. n.d. n.d. 1.25 n.d.,0/18
R56M+R100T+G103D,Ctrl,n.d. n.d. n.d. n.d. n.d. n.d.,0/18
S53A+R56L+G61S+A101T+T104K,Ctrl,n.d. n.d. n.d. n.d. n.d. n.d.,0/18
T28N+L29P,Ctrl,n.d. n.d. n.d. n.d. n.d. n.d.,0/18
T28S+S53A+F59Y+G61L+A101N,Ctrl,-0.07 -0.12 -0.31 -0.50 -0.19 -0.16,0/18
F27A+S53A+R56E,Ctrl,1.10 1.47 1.00 0.89 1.11 0.51,0/18
S35Q,Ctrl,n.d. n.d. n.d. 1.68 n.d. n.d.,0/18
T28E+L29I+S31D+R56H+K65R+R100K+G103D+D106L,Ctrl,0.99 0.63 1.89 1.71 1.48 1.09,0/18
T28D+I51L+A101C+G103V+D106C,Ctrl,n.d. n.d. n.d. n.d. n.d. n.d.; n.d. n.d. n.d. n.d. n.d. n.d.; n.d. n.d. n.d. n.d. n.d. n.d.; n.d. n.d. n.d. n.d. n.d. n.d.,0/72
L29I+R56Y,Ctrl,n.d. n.d. n.d. n.d. 1.51 n.d.,0/18
N30E+K65T+G99H,Ctrl,n.d. n.d. n.d. n.d. n.d. n.d.,0/18
S31D+F59A+G61D,Ctrl,n.d. n.d. n.d. n.d. 3.04 n.d.,0/18
R56M+R57H+A101V+F105W,Ctrl,n.d. n.d. n.d. n.d. n.d. 1.89,0/18
T28N+R57Y+G61D+G99C,Ctrl,n.d. n.d. n.d. n.d. n.d. n.d.,0/18
S53A+R100S,Ctrl+GPLM_Gen,0.33 -0.08 0.01 -0.19 0.06 -0.30; -0.20 -0.07 -0.50 -0.34 0.09 -0.34,1/36 (2.29)
F27A+T28W+S31E,Ctrl,n.d. 2.36 n.d. n.d. 3.36 2.58,0/18
T58A,Ctrl,n.d. 2.23 n.d. 1.59 n.d. 1.28,0/18
G61Q+A101F+S107D,Ctrl,n.d. n.d. n.d. n.d. n.d. n.d.,0/18
L29V+G61R+R100T,Ctrl,n.d. n.d. 2.06 2.69 2.25 n.d.,1/18 (1.63)
R100A+A101L,Ctrl,0.86 0.97 0.77 1.64 1.89 1.17,1/18 (2.01)
F59A+A102K,Ctrl,n.d. n.d. n.d. n.d. n.d. n.d.,0/18
N30D+R56E+R100P,Ctrl,n.d. n.d. n.d. n.d. n.d. n.d.,1/18 (2.07)
S31E+R57K+G99W,Ctrl,n.d. n.d. n.d. n.d. n.d. n.d.,0/18
N30T+A101E,Ctrl,0.84 0.85 0.72 0.94 1.13 0.62,0/18
V64Y+G103D,Ctrl,n.d. n.d. n.d. 1.91 n.d. n.d.,0/18
N30G+T104N,Ctrl,n.d. n.d. 1.96 1.73 n.d. 1.84,1/18 (1.98)
L29F+G61H+A101W,Ctrl,n.d. n.d. n.d. n.d. n.d. n.d.,0/18
G61S+K65R,Ctrl,0.87 0.69 0.86 0.72 0.81 0.83,1/18 (1.72)
F59A+G99E+R100S+S107Q,Ctrl,n.d. n.d. n.d. n.d. n.d. n.d.,0/18
G61S+A102P+S107D,Ctrl,n.d. n.d. n.d. n.d. n.d. n.d.,0/18
T28C+I34V+R56V+S107M,Ctrl,n.d. n.d. n.d. n.d. n.d. n.d.,0/18
G61S+G103L+T104F,Ctrl,n.d. n.d. n.d. n.d. n.d. n.d.,0/18
T28S+N30M+G61H,Ctrl,n.d. n.d. 0.22 -0.45 -0.49 n.d.,0/18
S53A+A101N+D106S,Ctrl,0.58 0.96 0.67 1.75 3.02 3.01,0/18
G26K,Ctrl,n.d. n.d. n.d. n.d. n.d. n.d.,0/18
I51M+G61L+R100L+D106H+S107L,Ctrl,n.d. n.d. n.d. n.d. n.d. n.d.,0/18
T28D+S31E,Ctrl+GPLM_Gen,-0.40 0.00 -0.35 -0.57 -0.57 -0.42; 0.37 0.36 0.35 0.39 0.18 0.36,2/36 (1.96)
T28H+N30M+R100K+A101E,Ctrl,0.82 1.03 1.36 0.15 1.08 1.22,0/18
G61M+V64T+F105D+D106K,Ctrl,n.d. n.d. n.d. n.d. n.d. n.d.,0/18
S31K+S53A,Ctrl,0.57 0.26 1.05 -0.12 0.81 0.48,0/18
G61T+K65S+A101L+S107L,Ctrl,n.d. 1.54 1.11 n.d. n.d. 1.96,1/18 (1.79)
T28Q+V50K+R56L+F59A+V64F+A101N+G103K,Ctrl,n.d. n.d. n.d. n.d. n.d. n.d.,1/18 (2.31)
S35T+R100S+A101R+G103V+T104M,Ctrl,-0.20 n.d. n.d. n.d. n.d. n.d.,0/18
F27E+I34V,Ctrl,n.d. n.d. n.d. n.d. n.d. n.d.,1/18 (2.60)
R56H,Ctrl,n.d. n.d. 1.23 n.d. n.d. n.d.,0/18

A selection of 7 entries from above:

| changes | group | log10 Kd (nM) by replicate | control signals |
|---|---|---|---|
| F59A+G99E+R100S+S107Q | Ctrl | n.d. n.d. n.d. n.d. n.d. n.d. | 0/18 |
| S53A+A101N+D106S | Ctrl | 0.58 0.96 0.67 1.75 3.02 3.01 | 0/18 |
| S31K+S53A | Ctrl | 0.57 0.26 1.05 -0.12 0.81 0.48 | 0/18 |
| G99I+R100E | Ctrl | n.d. n.d. n.d. n.d. 1.25 n.d. | 0/18 |
| R100A+A101L | Ctrl | 0.86 0.97 0.77 1.64 1.89 1.17 | 1/18 (2.01) |
| T28N+L29P | Ctrl | n.d. n.d. n.d. n.d. n.d. n.d. | 0/18 |
| S31D+F59A+G61D | Ctrl | n.d. n.d. n.d. n.d. 3.04 n.d. | 0/18 |